Test results from ChEMBL document CHEMBL1132255, “Structure-activity relationships for 5-substituted 1-phenylbenzimidazoles as selective inhibitors of the platelet-derived growth factor receptor” (J Med Chem, 1999).

Sequences of proteins named here, by UniProt entry; tags and fusion partners are left off.
UniProt P11362, whole entry: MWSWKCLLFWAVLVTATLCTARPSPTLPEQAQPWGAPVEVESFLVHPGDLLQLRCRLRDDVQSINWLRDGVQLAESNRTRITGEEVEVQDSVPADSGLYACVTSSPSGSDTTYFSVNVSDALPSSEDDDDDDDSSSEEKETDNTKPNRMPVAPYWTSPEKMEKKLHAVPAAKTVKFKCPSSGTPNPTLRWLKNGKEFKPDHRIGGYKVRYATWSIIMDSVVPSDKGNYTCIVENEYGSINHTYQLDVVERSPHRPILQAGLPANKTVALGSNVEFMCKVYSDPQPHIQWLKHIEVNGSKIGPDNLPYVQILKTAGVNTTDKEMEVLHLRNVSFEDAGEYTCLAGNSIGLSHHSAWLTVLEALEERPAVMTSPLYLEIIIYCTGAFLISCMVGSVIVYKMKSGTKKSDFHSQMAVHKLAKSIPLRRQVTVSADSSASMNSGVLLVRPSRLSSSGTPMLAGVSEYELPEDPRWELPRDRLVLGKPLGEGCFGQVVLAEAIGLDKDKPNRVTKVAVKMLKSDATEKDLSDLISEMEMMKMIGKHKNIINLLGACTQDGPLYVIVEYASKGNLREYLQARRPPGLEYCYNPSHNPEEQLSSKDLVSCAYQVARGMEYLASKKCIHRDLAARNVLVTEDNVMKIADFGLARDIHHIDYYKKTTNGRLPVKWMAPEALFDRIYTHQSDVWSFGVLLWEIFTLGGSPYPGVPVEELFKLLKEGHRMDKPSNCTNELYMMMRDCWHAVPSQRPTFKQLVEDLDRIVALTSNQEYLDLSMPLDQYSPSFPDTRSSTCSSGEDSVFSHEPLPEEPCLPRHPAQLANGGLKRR

Biological target: Fibroblast growth factor receptor 1 (Homo sapiens, UniProt P11362)
Experiment: Inhibition of [32P]ATP incorporated (phosphorylation) into glutamate-tyrosine copolymer substrate by human fibroblast growth factor receptor 1
In short: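 Enzymes were intracellular tyrosine kinase domain fragments (human FGFR-1 […], mouse PDGFR-β […]), 60–75 ng per reaction, in 25 mM HEPES pH 7.4 with 150 mM NaCl, 10 mM MnCl₂, 0.2 mM sodium orthovanadate, Glu-Tyr (4:1) random copolymer substrate and varied inhibitor. Reactions were started with [³²P]ATP (0.4 μCi), run 10 min at 25 °C and stopped with 15% TCA. IC50 was taken as the concentration reducing ³²P incorporation into the copolymer.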

IC50: > 50 µM
SMILES: Cc1cc2c(cc1O)ncn2-c1ccccc1
